The source of these data is patent publication US11358947B2, “Substituted 2-acylamino-cycloalkylthiophene-3-carboxylic acid arylamides as inhibitors of calcium-activated chloride channel TMEM16A” (THE REGENTS OF THE UNIVERSITY OF CALIFORNIA, priority 2017, dated 2022).

Assay [1] relates to non-TMEM16A Ca2+-activated Cl- channel in HT-29 cells. Nature of the assay: Non-TMEM16A CaCC plate reader assay in HT-29 cells expressing YFP. In kind it is cell-based. The following applies: Homo sapiens, non-TMEM16 anion conductance, fluorescence plate reader assay. The method, then:
(§1) Concentration-dependent inhibition of TMEM16A measured by short-circuit current assay; TMEM16B and non-TMEM16 anion conductance measured using a fluorescence plate reader assay using FRT and HT-29 cells respectively; cell viability measured in FRT null cells.
(§2) We further assayed the compound potency on endogenous non-TMEM16A. Ca^2+-activated Cl^− channel in HT-29 cells.
Plate reader assays of chloride channel function, CFTR inhibition was assayed as described. […] Activity of non-TMEM16A CaCC was assayed as described in HT-29 cells expressing YFP.

The target of a further assay is T1, TMEM16B (Homo sapiens, UniProt Q9NQ90).
T1 construct: expressed in transfected cells; host or cells: Fischer Rat Thyroid (FRT) cells co-expressing YFP
T1 sequence (Q9NQ90 1-998): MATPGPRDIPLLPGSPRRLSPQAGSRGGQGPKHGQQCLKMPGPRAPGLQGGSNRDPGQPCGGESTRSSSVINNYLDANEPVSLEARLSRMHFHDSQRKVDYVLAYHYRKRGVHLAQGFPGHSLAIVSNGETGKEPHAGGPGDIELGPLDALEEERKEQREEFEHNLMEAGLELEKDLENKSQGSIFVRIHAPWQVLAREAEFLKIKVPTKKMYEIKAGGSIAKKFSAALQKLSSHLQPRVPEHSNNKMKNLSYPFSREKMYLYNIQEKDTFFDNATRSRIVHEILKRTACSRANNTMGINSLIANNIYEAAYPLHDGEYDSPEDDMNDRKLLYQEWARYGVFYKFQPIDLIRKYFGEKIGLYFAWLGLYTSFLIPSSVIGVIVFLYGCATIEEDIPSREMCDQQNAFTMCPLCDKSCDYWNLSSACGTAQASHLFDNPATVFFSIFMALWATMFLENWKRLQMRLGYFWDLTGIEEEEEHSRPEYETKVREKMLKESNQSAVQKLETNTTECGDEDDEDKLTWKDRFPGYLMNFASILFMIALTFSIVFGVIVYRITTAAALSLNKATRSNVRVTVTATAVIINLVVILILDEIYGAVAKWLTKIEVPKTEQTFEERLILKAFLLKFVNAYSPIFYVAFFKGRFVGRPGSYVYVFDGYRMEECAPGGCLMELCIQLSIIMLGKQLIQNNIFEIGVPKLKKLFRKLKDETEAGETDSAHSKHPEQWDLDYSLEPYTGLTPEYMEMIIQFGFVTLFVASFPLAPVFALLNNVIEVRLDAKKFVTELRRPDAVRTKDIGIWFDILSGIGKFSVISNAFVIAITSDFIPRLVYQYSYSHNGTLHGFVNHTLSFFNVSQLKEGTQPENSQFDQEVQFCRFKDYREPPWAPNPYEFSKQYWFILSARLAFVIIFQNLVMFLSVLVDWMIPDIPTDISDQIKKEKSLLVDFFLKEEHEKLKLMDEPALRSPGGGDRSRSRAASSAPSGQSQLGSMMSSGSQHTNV
The assay is described as follows: TMEM16B fluorescence plate reader assay in FRT cells. In kind it is cell-based. The method, then:
as §1, §2
TMEM16A functional assay. TMEM16A functional plate-reader assay was done as previously described. […] Test compounds (0.5 μl in DMSO) were added to each well at specified concentration. […] The initial rate of I− influx following each of the solution additions was computed from fluorescence data by nonlinear regression. TMEM16B activity was assayed similarly as described using FRT cells co-expressing YFP and TMEM16B.

Molecules are shown by their SMILES.

As usually defined, the IC50 is the concentration at which inhibition is half-maximal. High values mean lower potency, low ones higher potency. In the case of `Cc1ccccc1NC(=O)c1c(NC(=O)C(F)(F)Cl)sc2c1CCCCC2` [Compound 6bk, 2-(2-Chloro-2,2-difluoro-acetylamino)-5,6,7,8-tetrahydro-4H-cyclohepta[b]thiophene-3-carboxylic acid o-tolylamide], in assay [1], 9.5 µM corresponded to half-maximal inhibition (IC50).
On to `Cc1ccccc1NC(=O)c1c(NC(=O)C(F)(F)Br)sc2c1CCCCC2` [Compound 6bm, 2-(2-Bromo-2,2-difluoro-acetylamino)-5,6,7,8-tetrahydro-4H-cyclohepta[b]thiophene-3-carboxylic acid o-tolylamide], for which the results for the concentration for half-maximal inhibition (IC50) (at TMEM16B; in assay [1]) were about 0.4 µM and 5.4 µM, respectively.
Turning to `Cc1ccccc1NC(=O)c1c(NC(=O)C(F)(F)I)sc2c1CCCCC2` [Compound 6bn, 2-(2,2-Difluoro-2-iodo-acetylamino)-5,6,7,8-tetrahydro-4H-cyclohepta[b]thiophene-3-carboxylic acid o-tolylamide], in assay [1], the IC50 was 3.5 µM.
